Experimental findings from PubChem BioAssay AID1159607 (Small Molecule Screening Facility, UW Madison, 2016) are described below.

Only a part is listed here, and it is no random draw. The source made the active and inactive calls. Rule as the data show it: active = FP signal below about 40; inactive = the rest.

The assay relates to RMI core complex (RMI1/RMI2) binding to FANCM MM2 peptide, human. Briefly: disruptors of RMI1/RMI2 association with MM2 peptide – biochemical, fluorescence polarization, human, primary screen (AID 1159607). The following applies: RMI core complex with F-MM2 peptide, at 33 µM, active compounds read low. (Polarisation of emitted light reports the rotation of a fluorescent probe.)
As for `OCCSCCO`, the FP signal (polarization) was inactive: 49.
The figure for `C/C1=C2N=C(/C=C3N=C(/C(C)=C4\[N-][C@@](C)([C@@H]5N=C1[C@](C)(CCC(=O)NC[C@@H](C)OP(=O)([O-])O[C@H]1[C@@H](O)[C@@H](n6cnc7cc(C)c(C)cc76)O[C@@H]1CO)[C@H]5CC(N)=O)[C@@](C)(CC(N)=O)[C@@H]4CCC(N)=O)[C@@](C)(CC(N)=O)[C@@H]\3CCC(N)=O)C(C)(C)[C@@H]/2CCC(N)=O.[C-]#N.[Co+3]` is inactive: 61.
The figure for `O=[N+]([O-])C1([N+](=O)[O-])COCOC1` is inactive: 60.
